Drawing on US11505521B2, “Crystalline epinephrine malonate salt” (Biothea Pharma, Inc., priority 2018, dated 2022), this text covers pH for one molecule.

The conditions of the series: 20 mg in 20 mL water, 25° C. On the procedure:
The tests were conducted using Sartorius balances (Model SQP) and a pH meter (Brand: INESA, Model No. PHS-3E). 20 mg of the sample was weighed and transferred into a 20 mL volumetric flask with the remainder of the volume comprising water. The solution was mixed. The pH meter was calibrated with pH 4.0 and pH 6.8 standard buffer solutions at 25° C.

Molecule `CNC[C@H](O)c1ccc(O)c(O)c1` [epinephrine malonate] displayed a pH of 4.34.
